Test results from patent US6500802B1, “Peptidyl-2-amino-1-hydroxyalkanesulfonic acid cysteine protease inhibitors” (Cephalon, Inc., priority 1997, dated 2002).

Settings: pH 7.4

| Compound | Solubility |
| --- | --- |
| CC(C)[C@H](NC(=O)OCc1ccccc1)C(=O)NC(Cc1ccccc1)C(O)S(=O)(=O)[O-].[Na+] (stereo partly drawn) [Compound 1, Benzyloxycarbonyl-L-valyl-2-amino-1-hydroxy-3-phenylpropanesulfonic acid sodium Salt] | 8.2 mg/mL |
| Tetrahydroisoquinoline-2-carbonyl-L-leucyl-2-amino-1-hydroxy-3-phenylpropanesulfonic acid sodium Salt [Compound 2] | 37 mg/mL |
